In patent US6716822B2, “Therapeutic agent for ischemia which inhibits apoptosis under ischemic condition” (priority 2000, dated 2004):

System: HepG2 cells
Assay: HepG2 cell viability under low oxygen (1% v/v) condition, trypan blue exclusion
Type: cell-based, human
Settings: 1% (v/v) oxygen

SMILES: Nc1ccc(S(=O)(=O)Nc2ncccn2)cc1 [sulfadiazine]
- Enhancement effect on cell viability under hypoxic condition (in words): did not show any effect
